# In PMC4773904 (The New England journal of medicine, 2015):
# System: Ba/F3 cells expressing EML4-ALK L1198F
# Experiment: Ba/F3 cell-survival assay
# Format: cell-based
compound,measurement,value
C[C@@H](Oc1cc(-c2cnn(C3CCNCC3)c2)cnc1N)c1c(Cl)ccc(F)c1Cl [crizotinib],Sensitivity in cell-survival assay (in words),particularly sensitive
